Consider one compound from article PMC10630842, “Impact of dietary plant flavonoids on 7,8‐dihydroxyflavone transepithelial transport in human intestinal Caco‐2 cells” (Food Science & Nutrition, 2023).

The subject of the experiment is Caco‐2 monolayers. Description: Bi-directional transepithelial transport of 7,8-DHF across Caco-2 monolayers with flavonoids screened as P-gp inhibitors (Papp, ER). Further: key: + indicates that the inhibitor has a significant effect on 7,8‐DHF transport; − indicates that the inhibitor has no significant effect on 7,8‐DHF transport. The experiment is classed as in vitro ADME, human. To be noted: flavonoid equimolar with 7,8‐DHF 10 μmol/L, verapamil 100 μmol/L. How it is done:
For this experiment, the 7,8‐DHF sample was first dissolved in a small amount of dimethyl sulfoxide (DMSO) and then diluted with HBSS to a working concentration of 10 μmol/L. The final DMSO concentration in the working solution was controlled to be less than 0.5%. […] Flavonoid samples were added to the AP and BL sides at equimolar concentrations with 7,8‐DHF (the sample concentration in HBSS solution was 10 μmol/L). Prior to transport, dietary flavonoids were pretreated on the AP side for 30 min. Then, these flavonoid reagents were removed, and a 0.5 mL HBSS solution containing various dietary flavonoids with 7,8‐DHF (concentration of 10 μmol/L) was added to the AP side, while 1.5 mL of blank HBSS was added to the BL side. Conversely, 1.5 mL of HBSS solution containing various dietary flavonoids with 7,8‐DHF (10 μmol/L) was added to the BL side, and 0.5 mL of blank HBSS was added to the AP side.
The magnitude of the apparent permeability coefficients (P app, cm/s) and efflux ratio (ER) reflects the ability of the test substance to pass through the monolayer cells and the speed of absorption.
(4) ER=PappAB/PappBA where P app AB is the apparent permeability coefficient for AP → BL transport, and P app BA is the apparent permeability coefficient for BL → AP transport.
Effect of different concentrations of specific flavonoids on 7,8‐DHF transepithelial transport was investigated. […]
A general note: Caco-2 monolayers are a common model of the intestinal barrier.

`COc1ccc([C@@H]2CC(=O)c3c(O)cc(O)cc3O2)cc1O` [Hesperetin, hesperetin]: the “Modulatory effect on 7,8‐DHF transport” value is “+”.
